Assay results from patent US6235777A, “Benzenesulfonamide compounds” (Ono Pharmaceutical Co., Ltd., priority 1997, dated 2001).

Sequences of proteins named here, by UniProt entry; tags and fusion partners are left off.
UniProt P35375, whole entry: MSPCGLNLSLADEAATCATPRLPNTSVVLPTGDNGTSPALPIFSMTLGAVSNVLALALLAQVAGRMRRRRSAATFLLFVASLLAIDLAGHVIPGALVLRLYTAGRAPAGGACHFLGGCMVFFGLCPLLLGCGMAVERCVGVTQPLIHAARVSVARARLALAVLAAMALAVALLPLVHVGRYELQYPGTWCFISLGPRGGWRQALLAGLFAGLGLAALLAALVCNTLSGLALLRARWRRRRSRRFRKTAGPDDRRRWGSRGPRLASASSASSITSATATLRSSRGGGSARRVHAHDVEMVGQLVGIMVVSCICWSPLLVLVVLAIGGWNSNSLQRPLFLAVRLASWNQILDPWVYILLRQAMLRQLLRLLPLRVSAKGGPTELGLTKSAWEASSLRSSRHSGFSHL
UniProt P30557, whole entry: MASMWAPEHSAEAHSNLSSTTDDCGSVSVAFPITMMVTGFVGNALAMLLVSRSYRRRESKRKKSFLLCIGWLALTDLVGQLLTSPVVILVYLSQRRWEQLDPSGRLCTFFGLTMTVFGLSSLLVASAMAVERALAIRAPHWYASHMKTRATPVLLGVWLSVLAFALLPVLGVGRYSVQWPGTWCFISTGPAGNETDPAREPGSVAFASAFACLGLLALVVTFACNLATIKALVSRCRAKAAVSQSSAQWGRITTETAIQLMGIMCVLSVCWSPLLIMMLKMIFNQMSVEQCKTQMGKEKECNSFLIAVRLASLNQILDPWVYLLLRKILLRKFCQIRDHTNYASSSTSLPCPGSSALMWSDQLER

Key:
[1] = biological target: mouse EP1 (Mus musculus, UniProt P35375); test: Binding assay using expression cell of prostanoid receptor subtype (EP1; competition of specific 3H-PGE2 binding to CHO cell membrane fraction); conditions: read-out: dissociation constant to receptor subtype, Ki (EP1), compounds of Related Arts (1) and (2), Table 2, same experiment as Table 1
[2] = biological target: mouse EP3 (Mus musculus, UniProt P30557); test: Binding assay using expression cell of prostanoid receptor subtype (EP3; competition of specific 3H-PGE2 binding to CHO cell membrane fraction); conditions: read-out: dissociation constant to receptor subtype, Ki (EP3), compounds of Related Arts (1) and (2), Table 2, same experiment as Table 1

Compound | Ki [1] [nM] | Ki [2] [nM]
Cc1ccc(S(=O)(=O)NC2C3CCC(CC3)C2CC=CCCCC(=O)O)cc1 (stereo not drawn) | 1300 | 170
O=C(O)CCC/C=C\C1C2C=CC(C2)C1CNS(=O)(=O)c1ccc(Br)cc1 (stereo not drawn) | 190 | 140
Cc1ccc(S(=O)(=O)NCC2C3C=CC(C3)C2/C=C\CCCC(=O)O)cc1 (stereo not drawn) | 3600 | 480
O=C(O)CCCC=CCC1CCCCC1NS(=O)(=O)C=Cc1ccccc1 (stereo not drawn) | 2300 | 13
O=C(O)CCCC=CCC1C2CCC(C2)C1NS(=O)(=O)C=Cc1ccccc1 (stereo not drawn) | > 10000 | 2.7
O=C(O)CCCC=CC1CCCCC1CNS(=O)(=O)c1ccc(Br)cc1 (stereo not drawn) | 69 | 95
